What was measured:
Assay type in all cases: physicochemical
[1] = Packed-column extraction of ethanol and ABE solutions with liquid DME, incremental distribution coefficients; settings: for Distribution Coefficient: ABE solution
Protocol: The tests were carried out in a 50-inch long by 0.68-inch internal diameter (ID) column containing stainless steel distillation packing to increase mass transfer between the liquid DME and the aqueous solution. The flow rate of the liquid DME for all the tests was about […], which calculates to a superficial velocity of the liquid DME of ˜0.3 cm/sec.
For each test, about 65 g of a pre-made feed solution was charged to the extraction column, and the column was sealed. DME was introduced into the system and pressure was maintained at 250 psi with the lab pump. Each run was carried out at ambient temperature (about 30° C.), and flow was manually controlled with the pressure-reduction valve.
About ⅓ of the charge was extracted in each test with DME in three fractions, and the raffinate was collected at the end of each test in two fractions. In the event that the concentration of ethanol, or ABE, in the raffinate was not homogeneous along the length of the column, the raffinate was collected in two fractions where RAF#1 was the first (bottom) portion of the raffinate drained and RAF#2 was the remaining (upper) portion.
All samples along with controls were sent to R.D. Laboratories (Washington, Mo.) for gas chromatography (GC) analysis.
The distribution coefficient (DC) is calculated as the ratio of the concentration of the component in the extract (y) phase to the concentration of the component in the raffinate (x) phase, or DC=Cy/Cx. Using the material balance information in the tables above, and the component analysis supplied by R.D. Labs, the incremental DCs for each fraction were calculated. These DCs are calculated using the conservative assumption that there is no dissolved DME in the liquid phase remaining in the extractor.

[2] = Distribution coefficients of ABE mixtures between DME and aqueous phase in agitated pressure vessel, HPLC
Protocol: The compositions of the aqueous mixtures were based on concentrations typically produced in a cellulosic fermentation.
Mixtures were charged to a pressure vessel and agitated to provide adequate contacting between the aqueous and solvent (DME) phases. Heat tape was used to control the temperature of the liquid that was measured by thermocouples. Pressure and temperature measurements were taken every five minutes. After temperature and pressure stabilization agitation was ceased and the liquid phases were allowed to fully settle.
A mass balance was also performed on each component of the ABE and BE mixtures to determine a degree of accuracy of the results.

[3] = CCC extraction with DME of clarified fermentation broth from Clostridium acetobutylicum, GC and DNS assay
Protocol: This example describes three different runs of the CCC with fermentation broth from Clostridium acetobutylicum. […] The fermentation was intentionally interrupted prior to completion.
The extraction column operated at room temperature (˜25° C.) throughout the column. Periodic extract and raffinate samples were taken and analyzed for the constituents in the extract and raffinate discharges.
This example describes three different runs. In all cases, the mass of solvent to the mass of feed ratio (S/F) was 0.9. In all example the fermentation broth was first centrifuged to removal all cellular matter. Thus, the feed solution was clarified. In the case of the first run, the following components were measured via gas chromatograph (GC) analysis using external standard calibration. The external standard was run prior to analyzing the samples to provide individual calibration between peak area and the respective constituent under measure. […] Acetate was the conjugate base of acetic acid. Butyrate was the conjugate base of butyric acid. All components were quantified in the extract and raffinate. Since the extract and raffinate are mostly water and DME dissolves in water to approximately 20 wt. %, the samples were allowed to degas over a 24 hour period.
During the run, samples were taken of the extract and raffinate. In the case of the extract, the bulk DME was removed by reduction of pressure and addition of heat to flash the DME from the water and other solution constituents.
Extract and raffinate samples were collected at periodic intervals during the CCC testing. […] Glucose was measured via a DNS (3,5-dinitrosalicylic acid) assay.
In cases where the extract formed a two phase solution, the extract samples were diluted with distilled water to create a single phase and homogenous sample prior to GC. The dilution factor was then used to correct the GC measurements for concentrations prior to dilution.

Substance: n-butanol
- Distribution Coefficient ([1]; fraction F1, liquid DME): 0.95
- Distribution Coefficient ([1]; fraction F2, liquid DME): 0.36
- Distribution Coefficient ([1]; fraction F3, liquid DME): 0.04
- distribution coefficient, previous measurements ([1]; previous results, DME/aqueous): approximately one
- distribution coefficient (slope of line fit) ([2]; 38° C., DME/aqueous): 2.86
- distribution coefficient (slope of linear line fit) ([2]; extract versus raffinate concentration, whole range, FIG. 5): 2.9
- DC ([2]; test ABE1, 31.1 ° C., 104 psig, DME/aqueous): 2.95
- DC ([2]; test ABE2, 38.3 ° C., 102 psig, DME/aqueous): 2.72
- DC ([2]; test ABE3, 38.3 ° C., 103 psig, DME/aqueous): 2.74
- DC ([2]; test ABE4, 38.0 ° C., 103 psig, DME/aqueous): 2.97
- DC ([2]; test B1, […] C., 78 psig, DME/aqueous): 3.17
- DC ([2]; test B2, 28.2 ° C., 83 psig, DME/aqueous): 3.71
- DC ([2]; test B3, 29.6 ° C., 86 psig, DME/aqueous): 2,49
- DC ([2]; test BE1, 30.1 ° C., 85 psig, DME/aqueous): 2.70
- DC ([2]; test BE2, 38.9 ° C., 107 psig, DME/aqueous): 2.84
- DC ([2]; test BE3, 37.6 ° C., 103 psig, DME/aqueous): 2.89
- DC ([2]; test BE3, 38.4 ° C., 106 psig, DME/aqueous): 3.03
- Distribution Coefficient ([3]; Run 1, calculated from extract and raffinate measurements, ~25° C., S/F 0.9): ~2.5
- distribution coefficients compared ([3]; Run 2, isobutanol versus butanol): approximately equal
- concentration in sample ([3]; Run 3, Extract Bot, time 31 min): 33910 µg/mL
- concentration in sample ([3]; Run 3, Extract Bot, time 37 min): 34660 µg/mL
- concentration in sample ([3]; Run 3, Extract Top, time 31 min): 304970 µg/mL
- concentration in sample ([3]; Run 3, Extract Top, time 37 min): 318400 µg/mL
- concentration in sample ([3]; Run 3, Extract, time 22 min): 19100 µg/mL
- concentration in sample ([3]; Run 3, Extract, time 27 min): 32630 µg/mL
- concentration in sample ([3]; Run 3, Extract, time 43 min): 32950 µg/mL
- concentration in sample ([3]; Run 3, Extract, time 70 min): 29580 µg/mL
- concentration in sample ([3]; Run 3, Extract, time 74 min): 31100 µg/mL
- concentration in sample ([3]; Run 3, Extract, time 78 min): 32830 µg/mL
- concentration in sample ([3]; Run 3, Extract, time 82 min): 36640 µg/mL
- concentration in sample ([3]; Run 3, Feed, time 0 min): 9430 µg/mL
- concentration in sample ([3]; Run 3, Raffinate, time 22 min): 2040 µg/mL
- concentration in sample ([3]; Run 3, Raffinate, time 27 min): 320 µg/mL
- concentration in sample ([3]; Run 3, Raffinate, time 31 min): 300 µg/mL
- concentration in sample ([3]; Run 3, Raffinate, time 37 min): 180 µg/mL
- concentration in sample ([3]; Run 3, Raffinate, time 43 min): 160 µg/mL
- concentration in sample ([3]; Run 3, Raffinate, time 70 min): 310 µg/mL
- concentration in sample ([3]; Run 3, Raffinate, time 74 min): 330 µg/mL
- concentration in sample ([3]; Run 3, Raffinate, time 78 min): 340 µg/mL
- concentration in sample ([3]; Run 3, Raffinate, time 82 min): 340 µg/mL

Reference: patent US9630894B2, “Energy efficient method and apparatus for the extraction of biomolecules from dilute aqueous solution” (DYNASEP INC., priority 2012, dated 2017)
